In this test the test system is human peripheral blood monocytes. Nature of the test: FACS analysis of cell surface markers on cultured peripheral blood monocytes. The test is classed as cell-based. To be noted: added to calcium ionophore treatment. On the technique in general: A flow cytometer gives signals particle by particle.

The record followed here is patent publication US6358736B1, “Method for increasing the antigen presenting ability of leukemia cells” (The United States of America as represented by the …, priority 1995, dated 2002).

Consider rhIL-2: recombinant human IL-2, for which the “effect of agent on ionophore-induced activated myeloid dendritic cell phenotype” value is “enhanced CD14 downregulation and upregulation of costimulatory, MHC, and other molecule expression”.
